## AlphaSeq binding of Ab-14 light chain variants to a spike HR2 peptide

Values reported by Li et al. 2023, doi:10.1038/s41467-023-39022-2 (FLAb copy).

All variants were tested on one target, the spike HR2 peptide PDVDLGDISGINAS (SARS-CoV-2).

Parent: Ab-14, a human scFv built as VH, three GGGGS repeats, VL. Only the CDRs of the light chain vary.
VH: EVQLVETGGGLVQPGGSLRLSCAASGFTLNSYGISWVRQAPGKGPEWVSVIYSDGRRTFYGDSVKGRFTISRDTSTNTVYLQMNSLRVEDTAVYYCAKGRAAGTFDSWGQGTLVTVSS
VL: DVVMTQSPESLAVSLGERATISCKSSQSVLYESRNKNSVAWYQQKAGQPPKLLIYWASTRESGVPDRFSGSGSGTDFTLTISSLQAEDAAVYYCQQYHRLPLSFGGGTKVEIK

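Designed CDR sequences, proposed from the first random library and measured here. Group labels follow the data file (Ctrl: baseline library sampled from a position-specific scoring matrix, with some repeated check sequences; GP: Gaussian process model; Gen: genetic algorithm; a sequence that several methods proposed may carry one label only). Affinity was read by AlphaSeq, a pooled yeast mating assay with surface-displayed partners. The frequency of each diploid, read from paired DNA barcodes, reflects how well the two displayed proteins bind. The ratio of observed to expected reads was calibrated, replicate by replicate, on BCL2-family standards whose Kd was known from biolayer interferometry. The assay was run in six technical replicates.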

The parent's light chain CDRs are KSSQSVLYESRNKNSVA, WASTRES, QQYHRLPLS; each variant's own CDRs replace them letter for letter. Numbers give log10(Kd / nM), so 0 is 1 nM and 3 is 1 µM. Smaller is tighter. The mean shown is taken over the replicates in which the pair was detected. Where no diploid with the target was found in that replicate, the entry reads "nd": below detection, most likely a poor binder, though not proof of it.

{"CDR-L1": "KSSQSVDYESRNHNSVA", "CDR-L2": "WASTREY", "CDR-L3": "QQYYRLPLS", "group": "Ctrl", "log10 Kd (nM) by replicate": "nd / 1.54 / nd / 1.25 / 1.29 / 1.42", "log10 Kd (nM), mean": "1.37", "empty controls": "0/18"}
{"CDR-L1": "IFYQSVLYEDRNKNSVA", "CDR-L2": "WATTRES", "CDR-L3": "QQYHRLELS", "group": "Ctrl", "log10 Kd (nM) by replicate": "nd / nd / nd / nd / nd / nd", "log10 Kd (nM), mean": "nd", "empty controls": "0/18"}
{"CDR-L1": "KGSQNVLYESRNKNSVA", "CDR-L2": "WAVTRES", "CDR-L3": "QQYHRLPLS", "group": "Ctrl", "log10 Kd (nM) by replicate": "nd / nd / nd / nd / nd / nd", "log10 Kd (nM), mean": "nd", "empty controls": "1/18 (1.00)"}
{"CDR-L1": "KSSQHVLGESRNKNSVA", "CDR-L2": "QASTRES", "CDR-L3": "QQYHRLPLS", "group": "Ctrl", "log10 Kd (nM) by replicate": "-0.09 / -0.25 / -0.38 / -0.22 / -0.06 / -0.11", "log10 Kd (nM), mean": "-0.18", "empty controls": "1/18 (2.53)"}
{"CDR-L1": "KSSQSVLDESRNKNSVA", "CDR-L2": "EGSTRES", "CDR-L3": "QQYHRLPLS", "group": "Ctrl", "log10 Kd (nM) by replicate": "0.09 / 0.06 / 0.08 / 0.07 / -0.03 / -0.24", "log10 Kd (nM), mean": "0.00", "empty controls": "0/18"}
{"CDR-L1": "KSSQSVIYEMRNKNSVA", "CDR-L2": "DGSTRES", "CDR-L3": "YQYHRLPLS", "group": "Ctrl", "log10 Kd (nM) by replicate": "2.08 / 0.89 / 0.68 / 0.51 / 0.81 / 1.80", "log10 Kd (nM), mean": "1.13", "empty controls": "1/18 (2.43)"}
{"CDR-L1": "KCSQSVLYEDRNKNSVA", "CDR-L2": "WASEREF", "CDR-L3": "QQYHRLPLS", "group": "Ctrl", "log10 Kd (nM) by replicate": "nd / 3.50 / 1.75 / 1.97 / 1.66 / 2.07", "log10 Kd (nM), mean": "2.19", "empty controls": "0/18"}
{"CDR-L1": "KSSQSVLPEHTNKNSVA", "CDR-L2": "WASTRVS", "CDR-L3": "QQYHRLPLS", "group": "Ctrl", "log10 Kd (nM) by replicate": "0.32 / 0.37 / -0.01 / 0.25 / 0.53 / 0.24", "log10 Kd (nM), mean": "0.28", "empty controls": "0/18"}
{"CDR-L1": "KSSQEVLYFSREKNSVA", "CDR-L2": "WASTRES", "CDR-L3": "QQPHRLPLS", "group": "Ctrl", "log10 Kd (nM) by replicate": "nd / nd / 1.85 / nd / nd / nd", "log10 Kd (nM), mean": "1.85", "empty controls": "1/18 (1.14)"}
{"CDR-L1": "KSSQSVSYESTNENSVA", "CDR-L2": "WATTREH", "CDR-L3": "QGYHRLPLS", "group": "Ctrl", "log10 Kd (nM) by replicate": "nd / nd / nd / nd / nd / nd", "log10 Kd (nM), mean": "nd", "empty controls": "0/18"}
{"CDR-L1": "KSSQSVLYERRDKNSVA", "CDR-L2": "WASTRVE", "CDR-L3": "QQYHRIPLS", "group": "Ctrl", "log10 Kd (nM) by replicate": "nd / 1.54 / nd / nd / nd / 2.24", "log10 Kd (nM), mean": "1.89", "empty controls": "0/18"}
{"CDR-L1": "KSSQSVLYESRNKNSVA", "CDR-L2": "KASTRES", "CDR-L3": "QQLHRLPLS", "group": "Ctrl", "log10 Kd (nM) by replicate": "nd / nd / nd / nd / nd / nd", "log10 Kd (nM), mean": "nd", "empty controls": "0/18"}
{"CDR-L1": "KLSQSVLYESRNKNSVA", "CDR-L2": "AASTRES", "CDR-L3": "QQYHRLPLS", "group": "Ctrl+GP_Gen", "log10 Kd (nM) by replicate": "0.04 / 0.05 / 0.09 / -0.03 / -0.22 / 0.12; 0.21 / 0.33 / 0.24 / 0.36 / 0.39 / 0.42", "log10 Kd (nM), mean": "0.17", "empty controls": "0/36"}
{"CDR-L1": "KSSQSVLYESRNKNSVA", "CDR-L2": "SASTREE", "CDR-L3": "QQYHRLPLS", "group": "Ctrl", "log10 Kd (nM) by replicate": "1.15 / 0.94 / 1.49 / 0.99 / 1.19 / 1.32", "log10 Kd (nM), mean": "1.18", "empty controls": "1/18 (2.27)"}
{"CDR-L1": "ISPQSVLYESRNKNSVA", "CDR-L2": "NASTRES", "CDR-L3": "QQYHRLPES", "group": "Ctrl", "log10 Kd (nM) by replicate": "nd / 2.15 / nd / 2.11 / nd / nd", "log10 Kd (nM), mean": "2.13", "empty controls": "0/18"}
{"CDR-L1": "KNSQSVLYESRNHNSVA", "CDR-L2": "NASTRES", "CDR-L3": "QQYHRLPLS", "group": "Ctrl", "log10 Kd (nM) by replicate": "0.28 / 0.04 / 0.25 / 0.28 / -0.04 / 0.29", "log10 Kd (nM), mean": "0.18", "empty controls": "2/18 (3.50)"}
{"CDR-L1": "KSGQSVLYESRNVNSVA", "CDR-L2": "NASTRES", "CDR-L3": "QQYHRLPLS", "group": "Ctrl", "log10 Kd (nM) by replicate": "0.31 / 0.30 / 0.08 / -0.01 / 0.20 / 0.27", "log10 Kd (nM), mean": "0.19", "empty controls": "0/18"}
{"CDR-L1": "KSSQSVLYESWNKNSVA", "CDR-L2": "WASTREK", "CDR-L3": "QQYHRLPLS", "group": "Ctrl", "log10 Kd (nM) by replicate": "3.60 / 2.12 / 2.37 / 4.59 / 2.80 / 2.48", "log10 Kd (nM), mean": "2.99", "empty controls": "2/18 (3.31)"}
{"CDR-L1": "KFSQNVLYETRNKNSVA", "CDR-L2": "WASTRES", "CDR-L3": "QQYHRLPLS", "group": "Ctrl", "log10 Kd (nM) by replicate": "0.32 / 0.55 / 0.15 / 0.00 / -0.21 / 0.07", "log10 Kd (nM), mean": "0.15", "empty controls": "0/18"}
{"CDR-L1": "KDSQSALRESHNKNSVA", "CDR-L2": "WASTRES", "CDR-L3": "QQYHRLPLS", "group": "Ctrl", "log10 Kd (nM) by replicate": "2.45 / 2.85 / nd / nd / nd / nd", "log10 Kd (nM), mean": "2.65", "empty controls": "1/18 (2.13)"}
{"CDR-L1": "KSSQSVLYESRNKNSVA", "CDR-L2": "TASTRES", "CDR-L3": "QQYHRLPLS", "group": "Ctrl", "log10 Kd (nM) by replicate": "2.18 / 1.65 / 1.29 / 2.02 / 2.01 / 3.15", "log10 Kd (nM), mean": "2.05", "empty controls": "1/18 (2.88)"}
{"CDR-L1": "KSSQSVLYESENKNSVA", "CDR-L2": "WGSTRES", "CDR-L3": "DQYHRLPLS", "group": "Ctrl", "log10 Kd (nM) by replicate": "0.33 / nd / 1.25 / 1.38 / nd / 1.14", "log10 Kd (nM), mean": "1.03", "empty controls": "0/18"}
{"CDR-L1": "KSSQSVTYESNNKNSVA", "CDR-L2": "WDSTRPS", "CDR-L3": "QQYHRLHLK", "group": "Ctrl", "log10 Kd (nM) by replicate": "nd / nd / nd / nd / nd / nd", "log10 Kd (nM), mean": "nd", "empty controls": "0/18"}
{"CDR-L1": "ASSNSVLYLSRSKNSVA", "CDR-L2": "KASTRES", "CDR-L3": "QQYHRLPLS", "group": "Ctrl", "log10 Kd (nM) by replicate": "nd / 1.90 / 1.14 / nd / nd / nd", "log10 Kd (nM), mean": "1.52", "empty controls": "0/18"}
{"CDR-L1": "KGSQSVLYESRNKASVA", "CDR-L2": "SARTRMS", "CDR-L3": "QQYHRLPLS", "group": "Ctrl", "log10 Kd (nM) by replicate": "1.48 / nd / 1.29 / 2.01 / 1.62 / 1.99", "log10 Kd (nM), mean": "1.68", "empty controls": "0/18"}
{"CDR-L1": "KSSSSVLYEDLNKNSIA", "CDR-L2": "TASTRES", "CDR-L3": "QQYHRLPLS", "group": "Ctrl", "log10 Kd (nM) by replicate": "1.36 / 0.07 / 0.35 / -0.07 / 0.76 / 0.83", "log10 Kd (nM), mean": "0.55", "empty controls": "0/18"}
{"CDR-L1": "KSSLSVLYESRNKNSVA", "CDR-L2": "WASTRES", "CDR-L3": "QQYHRLPLS", "group": "Ctrl", "log10 Kd (nM) by replicate": "nd / 2.47 / nd / 2.40 / nd / 2.33", "log10 Kd (nM), mean": "2.40", "empty controls": "0/18"}

For reference, 3 entries of the list once more:

{"CDR-L1": "KDSQSALRESHNKNSVA", "CDR-L2": "WASTRES", "CDR-L3": "QQYHRLPLS", "group": "Ctrl", "log10 Kd (nM) by replicate": "2.45 / 2.85 / nd / nd / nd / nd", "log10 Kd (nM), mean": "2.65", "empty controls": "1/18 (2.13)"}
{"CDR-L1": "KSSQSVTYESNNKNSVA", "CDR-L2": "WDSTRPS", "CDR-L3": "QQYHRLHLK", "group": "Ctrl", "log10 Kd (nM) by replicate": "nd / nd / nd / nd / nd / nd", "log10 Kd (nM), mean": "nd", "empty controls": "0/18"}
{"CDR-L1": "KCSQSVLYEDRNKNSVA", "CDR-L2": "WASEREF", "CDR-L3": "QQYHRLPLS", "group": "Ctrl", "log10 Kd (nM) by replicate": "nd / 3.50 / 1.75 / 1.97 / 1.66 / 2.07", "log10 Kd (nM), mean": "2.19", "empty controls": "0/18"}

Some sequences occur more than once in the pool; their replicates are listed entry by entry, parted by semicolons. The parent sequence was in this pool as ten entries: three were never detected, three once, and four in most replicates, with averages from 0.34 to 2.37. In the paper, a design with two or fewer of six values counts as a poor binder. Values of this round are not directly comparable with the first-round values of the same sequences. As a blank, each scFv also met three strains without target: over all light chain designs, 4% of these pairings were detected, typically at 2.64 and seldom below 1.59. The control count says in how many pairings with the empty strains this scFv gave a signal, with their mean in brackets.